Reference: PubChem BioAssay AID602310 (National Center for Advancing Translational Sciences (NCATS), 2012)
This is a selection; strong and weak results do not stand in their true shares. Active and inactive are the calls of the source. Calls follow the shape of the dose curve; as a rule, active = well fitted curve in the direction sought with a large enough effect; inconclusive = small, poorly fitted or top-dose-only effect; inactive = flat fitted curve, though single readings scatter.

Amino acid sequences for entries named in this document (tags omitted). A change or cut given only in a name is not applied to a line headed by its entry.
UniProt Q9HC16: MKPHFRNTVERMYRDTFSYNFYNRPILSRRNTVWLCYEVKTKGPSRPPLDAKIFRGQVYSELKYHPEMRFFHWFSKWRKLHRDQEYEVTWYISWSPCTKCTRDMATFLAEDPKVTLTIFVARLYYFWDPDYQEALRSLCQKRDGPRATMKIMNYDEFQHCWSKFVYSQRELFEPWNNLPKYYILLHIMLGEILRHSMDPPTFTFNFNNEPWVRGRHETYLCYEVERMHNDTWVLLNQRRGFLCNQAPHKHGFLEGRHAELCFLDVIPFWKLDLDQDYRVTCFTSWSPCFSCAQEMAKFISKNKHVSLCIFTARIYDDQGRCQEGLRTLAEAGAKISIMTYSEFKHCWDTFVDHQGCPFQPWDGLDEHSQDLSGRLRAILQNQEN

What follows are molecules tested against DNA dC->dU-editing enzyme APOBEC-3G (Homo sapiens) (UniProt Q9HC16) (assay: qHTS for Inhibitors of Vif-A3G Interactions: qHTS). Conditions: HeLa A3G-eYFP + Vif (tagged APOBEC3G with the HIV-1 protein that degrades it), YFP fluorescence, overnight; at 46.1 µM (top of the series).
Source text: The recent discovery and characterization of host restriction factors, which provide a potent defense to invading retroviruses, has provided new targets for antiviral drug development. APOBEC3G (A3G) and APOBEC3F (A3F) are potent cytidine deaminases that block HIV-1 replication; HIV-1 expresses the Vif protein, which counteracts A3G and A3F by binding to them and inducing their proteasomal degradation. The Vif-A3G and Vif-A3F interactions provide two potential targets for development of small molecules which can interfere with the ability of Vif to degrade A3G or A3F. […] To identify inhibitors that can interfere with Vif mediated degradation of A3G and A3F, we have developed Hela cell lines that stably express A3G or A3F tagged with eYFP at the C-terminal end (A3G-eYFP or A3F-eYFP, respectively) and Vif. In the absence of an inhibitor, Vif induces degradation of A3G-eYFP and A3F-eYFP, and the cells are not fluorescent. In the presence of an inhibitor, it is expected that Vif will be unable to degrade A3G-eYFP and/or A3F-eYFP, resulting in an increase in yellow fluorescence. In this assays Vif A3G was screened against the Molecular Library Small Molecule Repository (MLSMR). NIH Chemical Genomics Center [NCGC] NIH Molecular Libraries Probe Centers Network [MLPCN] MLPCN Grant: MH093245 Assay Submitter (PI): Vinay Pathak, National Cancer Institute
5 uL of 700 cells/well of A3G-YFP cells are dispensed into black, clear bottom plates. The plates are incubated overnight at 37 deg C. 23 nL of compounds are added by pintool. The plates are incubated overnight at 37 deg C and then read on the TTP Acumen (Ex 488/ Em 500-530).
% is scaled to controls: 0 for no effect and ±100 for the full control effect.
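Also: hits raise eYFP signal because A3G escapes Vif-driven loss; nearly all actives have a fitted effect of over 60% in size.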

| Structure (SMILES) | activity, negative = active |
| --- | --- |
| COc1cc(C(=O)NCC2(N3CCOCC3)CCCCC2)cc(Cl)c1OC(C)C | inactive: 0.0083% |
| O=[As](O)(O)c1cccnc1 | inactive: -5.59% |
| CS(=O)(=O)c1ccc(Cl)c(NC(=O)COC(=O)C(O)(c2ccccc2)c2ccccc2)c1 | inactive: -0.0441% |
| O=C(OC1CN2CCC1CC2)c1ccc(Cl)cc1 (stereo not given) | inactive: 1.63% |
| O=[As](O)(c1cccc(O)c1)c1cccc(O)c1 | inactive: -0.473% |
| Cc1cccc(OCC(=O)OC2CN3CCC2CC3)c1 (stereo not given) | inactive: -0.0757% |
| CCCOP(=S)(Nc1nc(N)cc(=O)[nH]1)OCCC | inactive: -0.498% |
| Nc1cccc2c([As](=O)(O)O)cccc12 | inactive: 0.248% |
| COc1cc(C2NCCC3(OCCO3)C2(C)C)cc(OC)c1OC (stereo not given) | inactive: -0.333% |
| CCOP(=O)(Nc1cccc2ccccc12)OCC | inactive: -1.16% |
| CS(=O)(=O)c1cc([N+](=O)[O-])c2no[n+]([O-])c2c1 | inactive: -18.6% |
| CCOP1(=S)c2c(C)nn(CCC#N)c2N=C(c2ccccc2F)N1C (stereo not given) | inactive: -13.3% |
| O=P(Nc1nccs1)(Oc1ccccc1)Oc1ccccc1 | inactive: 0.947% |
| O=C(O)COc1ccc([As](=O)(O)O)cc1[N+](=O)[O-] | inactive: 2.73% |
| Nc1ccccc1[As](=O)(O)c1ccccc1 | inactive: -0.159% |
| CN(C)C(=O)c1cc([N+](=O)[O-])cc2c1-c1c(cc([N+](=O)[O-])cc1[N+](=O)[O-])C2=O | inactive: -14.9% |
| O=[N+]([O-])c1ccc2c(c1)nnn2O | inactive: 4.93% |
| CN(C(=O)Cc1ccc(Cl)c(Cl)c1)[C@H]1CC[C@@]2(CCCO2)C[C@@H]1N1CCCC1 | inactive: -3.58% |
| N#CCCN(C(=O)COC(=O)C(O)(c1ccccc1)c1ccccc1)c1ccc(F)cc1 | inactive: 0.0034% |
| CCOP1(=S)c2c(C)nn(CCC#N)c2N=C(c2ccc(F)cc2)N1C (stereo not given) | inactive: 1.08% |
| CN(C(=O)Cc1ccccc1)[C@@H]1CC[C@]2(CCCO2)C[C@H]1N1CCCC1 | inactive: -1.95% |
| Cc1nn(-c2ccccc2)c2c1P(=O)(N1CCOCC1)N(C)C(c1ccccc1)=N2 (stereo not given) | inactive: 1.77% |
| COc1cc([N+](=O)[O-])ccc1[N+](=O)[O-] | inactive: -10.8% |
| Cc1ccc(C(=O)OC2CN3CCC2CC3)cc1 (stereo not given) | inactive: 0.326% |
| CC1CCC(C(C)C)C(OP(=O)(Nc2ccccn2)c2ccccc2)C1 (stereo not given) | inactive: -8.07% |

| Structure (SMILES) | activity, negative = active |
| --- | --- |
| O=C(/C=C/c1ccccc1)OC1CN2CCC1CC2 (stereo not given) | inactive: -0.172% |
| CCCC1OP(=O)(Nc2ccccc2)OCC1CC (stereo not given) | inactive: 0.743% |
| CN(C)C1(CNC(=O)c2ccc(S(C)(=O)=O)cc2)CCCCC1 | inactive: -0.595% |
| O=P1(Nc2ncccn2)COc2ccccc2OC1 | inactive: 0.642% |
| Cc1ccc(S(=O)(=O)N(CCCN)CCCc2c(C)nc(N)[nH]c2=O)cc1 | inactive: 1.78% |
| NS(=O)(=O)c1cccc(NC(=O)COC(=O)C(O)(c2ccccc2)c2ccccc2)c1 | inactive: 0.671% |
| O=P1(Nc2ccc(Br)cn2)COc2ccccc2OC1 | inactive: 0.697% |
| O=[As](O)(c1cccs1)c1cccs1 | inactive: -5.18% |
| Cc1ccc(OCC(=O)OC2CN3CCC2CC3)cc1 (stereo not given) | inactive: 0.236% |
| Nc1cccc([As](=O)(O)c2ccccc2)c1 | inactive: -4.18% |
| CN(CCCl)Cc1cc(Cl)c(NC2=NCCN2)c(Cl)c1 | inactive: -2.09% |
| CCOP(=O)(Nc1ccc(C)cn1)OCC | inactive: -0.563% |
| CCC1=CC2Cc3nc4ccc(Cl)cc4c(N)c3C(C1)C2 (stereo not given) | inactive: -1.81% |
| O=P1(Nc2ccccn2)COc2ccccc2OC1 | inactive: -1.15% |
| CCOP(=O)(NC(=NC(C)c1ccccc1)NC(C)c1ccccc1)OCC (stereo not given) | inactive: 1.69% |
| Clc1n[nH]nc1-c1nn[nH][15n]1 | inactive: -0.74% |
| O=P1(N(CCCl)CCCl)NCCC(C(F)(F)F)O1 (stereo not given) | inactive: 1.21% |
| CC(C)(C)C(=O)NC(Sc1ncccn1)C(Cl)(Cl)Cl (stereo not given) | inactive: 1.56% |
| COc1ccccc1CNC(=O)COC(=O)C(O)(c1ccccc1)c1ccccc1 | inactive: -0.905% |
| CC1(CBr)Cn2c(nc3ccccc3c2=O)S1 (stereo not given) | inactive: -0.0351% |
| CN(C(=O)Cc1ccc(Cl)c(Cl)c1)[C@@H]1CCCC[C@H]1N1CCCC1 | inactive: -0.884% |
| CC(C)/C=N\N=C(\N)N[N+](=O)[O-] | inactive: -3.53% |
| COP1(=S)c2c(C)nn(CCC#N)c2N=C(c2ccc(F)cc2)N1C (stereo not given) | inactive: -0.429% |
| COC(=O)C1(C)COP(=O)(N2CCCC2)OC1 (stereo not given) | inactive: 3.51% |
| O=C(COc1ccccc1)OC1CN2CCC1CC2 (stereo not given) | inactive: 0.286% |

| Structure (SMILES) | activity, negative = active |
| --- | --- |
| O=C(Nc1ccncc1[N+](=O)[O-])c1ccc([N+](=O)[O-])cc1[N+](=O)[O-] | inactive: -15.1% |
| O=C(O)C(=O)c1ccc(N(CCCl)CCCl)cc1 | inactive: 1.99% |
| O=C(OC1CN2CCC1CC2)c1cccc([N+](=O)[O-])c1 (stereo not given) | inactive: -3.45% |
| CSc1ccc(Nc2c([N+](=O)[O-])cc([N+](=O)[O-])cc2[N+](=O)[O-])cc1 | inactive: -1.26% |
| CCOP(=O)(Nc1cccc2cccnc12)OCC | inactive: 2.15% |
| CCC(C)N(CC(C)C)C(=S)SC(NC(C)=O)C(Cl)(Cl)Cl (stereo not given) | inactive: 1.55% |
| CC1CCNP(=O)(N(CCCl)CCCl)O1 (stereo not given) | inactive: -0.406% |
| O=C(O)C(O)c1ccc(N(CCCl)CCCl)cc1 (stereo not given) | inactive: 0.155% |
| CCOC(=O)Nc1ccc([As](=O)(O)O)c(O)c1 | inactive: -0.0823% |
| CCCCOc1ccc(C(=O)NCC2(N3CCCCC3)CCCCC2)cc1OC | inactive: -0.457% |
| Cc1cc(SC(NC(=O)c2ccccc2)C(Cl)(Cl)Cl)nc(C(C)C)n1 (stereo not given) | inactive: -5.13% |
| COP(=O)(OC)N1CC1c1ccccc1 (stereo not given) | inactive: -0.381% |
| CCOC(=O)Nc1cccc([As](=O)(O)O)c1 | inactive: 3.95% |
| O=[N+]([O-])c1ccc(Nc2ccc(Oc3ccc([N+](=O)[O-])cc3[N+](=O)[O-])cc2)c([N+](=O)[O-])c1 | inactive: 0.73% |
| Cc1cc(SC(NC=O)C(Cl)(Cl)Cl)ncn1 (stereo not given) | inactive: 0.309% |
| O=P(Nc1ccccn1)(c1cccc2ccccc12)c1cccc2ccccc12 | inactive: -2.19% |
| O=[As](O)(c1ccc(O)cc1)c1ccccc1O | inactive: -1.18% |
| C[As](=O)(O)c1cccc(C(=O)O)c1 | inactive: 2.12% |
| COc1cc(C(=O)NCC2(N3CCOCC3)CCCCC2)ccc1OCC(C)C | inactive: -8.75% |
| O=[N+]([O-])c1ccc(-c2cc([N+](=O)[O-])c(O)c([N+](=O)[O-])c2)cc1 | inactive: 0.063% |
| Cc1ccc2nc3c(c(C)c2c1)CC(C(Cl)Cl)S3 (stereo not given) | inactive: 2.5% |
| Cc1ccc(OP(=O)(Nc2ccc([N+](=O)[O-])cn2)Oc2ccc(C)cc2)cc1 | inactive: 1.59% |
| ClCCN(CCCl)c1ccc(CC2C=CC=C2)cc1 | inactive: 0.932% |
| CC(C)c1ccc(OP(=O)(Nc2ccccn2)Oc2ccccc2F)cc1 (stereo not given) | inactive: 4.28% |
| COC(=O)C1(C)COP(=O)(N2CCCCCC2)OC1 (stereo not given) | inactive: -2.08% |

| Structure (SMILES) | activity, negative = active |
| --- | --- |
| O=Cc1ccc(NCCCl)cc1 | inactive: 2.68% |
| ClCCSc1nnc(-c2cccnc2)o1 | inactive: -2.38% |
| O=C(OC1CN2CCC1CC2)c1cccc2[nH]cnc12 (stereo not given) | inactive: 0.599% |
| CCN(CC)C(=S)SC(NC=O)C(Cl)(Cl)Cl (stereo not given) | inactive: -5.68% |
| CC(C)NC(=O)NP(=O)(Oc1ccccc1)Oc1ccccc1 | inactive: -3.69% |
| O=[N+]([O-])c1cc([N+](=O)[O-])c(-c2ccn[nH]2)s1 | inactive: -15% |
| O=C(OC1CN2CCC1CC2)C12CC3CC(CC(C3)C1)C2 (stereo not given) | inactive: 1.76% |
| Cc1cc(=O)[nH]c(N[N+](=O)[O-])n1 | inactive: -4.72% |
| Cc1c2c(nc3ccccc13)SC(C(Cl)Cl)C2 (stereo not given) | inactive: -5.86% |
| COc1ccc2nc(NP(=O)(c3ccccc3)c3ccccc3)sc2c1 | inactive: -5.6% |
| COc1cc(I)ccc1[As](=O)(O)O | inactive: -4.15% |
| O=P1(N(CCCl)CCCl)Nc2ccccc2N1 | inactive: 2.05% |
| O=P1(N(CCCl)CCCl)OCCCN1CCCl (stereo not given) | inactive: 1.34% |
| COc1ccc(N/C(=N/P(=O)(N2CCOCC2)N2CCOCC2)N2CCOCC2)cc1 | inactive: 3.88% |
| O=[N+]([O-])c1cc(Oc2ccc([N+](=O)[O-])cc2C(F)(F)F)cc([N+](=O)[O-])c1 | inactive: -5.96% |
| NC(=O)c1cc([N+](=O)[O-])cc([N+](=O)[O-])c1N | inactive: 3.53% |
| CN(C(=O)Cc1ccc(Cl)c(Cl)c1)[C@H]1CCCC[C@H]1N1CCCC1 | inactive: 0.529% |
| Cc1ccc(N/C(=N/P(=O)(N2CCOCC2)N2CCOCC2)N2CCOCC2)cc1 | inactive: 2.13% |
| COc1ccccc1OP(=O)(Nc1ccc(C)cn1)Oc1ccccc1OC | inactive: -1.91% |
| Cc1ccc(OP(=O)(Nc2nccs2)Oc2ccc(C)cc2)cc1 | inactive: -2.06% |
| Clc1ccc(Cl)c(NC2=NCC(CBr)S2)c1 (stereo not given) | inactive: -2.2% |
| CN1CCCC(OC(=O)C(c2ccccc2)c2ccccc2)C1 (stereo not given) | inactive: 4.95% |
| CC(C)CC(=O)NC(Sc1ccc(Cl)cc1)C(Cl)(Cl)Cl (stereo not given) | inactive: 0.817% |
| Nc1cc(N)c2nonc2c1[N+](=O)[O-] | inactive: 1.02% |
| Oc1ccccc1CNc1ccccn1 | inactive: -0.0563% |
